Test results as given in paper PMC7098970, “Neurosteroids as Selective Inhibitors of Glycine Receptor Activity: Structure-Activity Relationship Study on Endogenous Androstanes and Androstenes” (Frontiers in Molecular Neuroscience, 2020).

The molecules below were run on glycine receptor (GlyR) (assay: Glycine-induced chloride current (IGly), whole-cell patch-clamp in isolated pyramidal neurons of the rat hippocampus).
Format: cell-based
Protocol: All experiments were conducted per the requirements of the Ministry of Public Health of the Russian Federation and were consistent with the EU directive for Use of Experimental Animals of the European Community. […] The cells were isolated from transverse hippocampal slices as described in detail elsewhere ([Vorobjev, 1991]). Briefly, the slices (200–500 μm) of Wistar rats (11–14 days of age) hippocampus or cerebellum were incubated at room temperature for at least 2 h in a solution containing the following components (in mM): 124 NaCl, 3 KCl, 2 CaCl2, 2 MgSO4, 25 NaHCO3, 1.3 NaH2PO4, 10 D-glucose, pH 7.4. The saline was continuously stirred and bubbled with carbogen (95% 0_2 + 5% CO2). Single pyramidal neurons from the hippocampal CA3 area or Purkinje cells from sagittal slices of the cerebellum were isolated by a vibrating fused glass pipette with a spherical tip.
Isolated neurons were patch clamped and then lifted into the outflow of the control bath solution. […] The substances were applied through glass capillary, 0.1 mm in diameter, which could be rapidly displaced laterally ([Vorobjev et al., 1996]). A fast perfusion technique allows a complete exchange of external solution surrounding a neuron within 20 ms. […] Transmembrane currents were recorded using a conventional patch-clamp technique in the whole-cell configuration. […] The solution in the recording pipette contained the following (in mM): 40 CsF, 100 CsCl, 0.5 CaCl2, 5 EGTA, 3 MgCl2, 4 NaATP, 5 HEPES, pH 7.3. […] Transmembrane currents were filtered at 3 kHz, stored and analyzed with IBM-PC computer, using homemade software.
Statistical analysis was performed with the help of Prism Graphpad software. […] The IC50 values for steroids inhibition of the IGly and IGABA were determined using the equation: Y = 1 – [max/(1 + (IC50/C)^n)], where max is the maximum inhibition attainable, C is the concentration of steroid, IC50 is the half-maximal inhibitory concentration and n is the slope factor (Hill coefficient). […]
C[C@]12CCC(=O)C[C@H]1CC[C@@H]1[C@@H]2CC[C@]2(C)C(=O)CC[C@@H]12 [Compound 9, 5β-Androstane-3,17-dione] was tested, and the “Selectivity IGly vs. IGABA in words” value was “selective modulators of IGly”.
With C[C@]12CCC(=O)C[C@@H]1CC[C@@H]1[C@@H]2CC[C@]2(C)C(=O)CC[C@@H]12 [Compound 6, 5α-Androstane-3,17-dione] the “Selectivity IGly vs. IGABA in words” value was “selective modulators of IGly”.
In the case of C[C@]12CC[C@H]3[C@@H](CCC4=CC(=O)CC[C@@]43C)[C@@H]1CC[C@H]2O [Compound 5, 17α-Hydroxyandrost-4-en-3-one], the “Selectivity IGly vs. IGABA in words” value is reported as “selective modulators of IGly”.
